According to patent publication US10918641B2, “Use of MTAP inhibitors for the treatment of lung disease” (The University of North Carolina at Chapel Hill, priority 2015, dated 2021):

Test: MTDIA plasma pharmacokinetics after oral or i.p. dose in CD-1 mice
Settings: oral or i.p. dose 15 mg/kg

CSC[C@H]1CN(Cc2c[nH]c3c(N)ncnc23)C[C@@H]1O [MTDIA, (3R,4S)-1-[(9-deazaadenin-9-yl)methyl]-3-hydroxy-4-(methylthiomethyl)pyrrolidine]
Peak concentration of MTDIA in plasma: ~0.1 µM
Time of peak plasma concentration: 1 h
